Earlier results as cited in patent US20240033282A1, “METHOD FOR IDENTIFYING AND/OR FOR OBTAINING AN ACTIVE SUBSTANCE FOR THE TREATMENT AND THERAPY OF FAMILIAL AMYOTROPHIC LATERAL SCLEROSIS, AND USE OF AN ACTIVE SUBSTANCE FOR THE TREATMENT OF THIS DISEASE” (Forschungszentrum Juelich GmbH, priority 2020, published 2024).

Tested on: ALS
Conditions: cited from earlier work

For `Nc1nc2ccc(OC(F)(F)F)cc2s1` [riluzole], the “increase in the 1-year survival rate” value is listed as 9% and the survival advantage is listed as 2-3 months.
